Test results taken from patent publication US20240181135A1, “BIOCHEMICAL ACTIVATION OF DYSFUNCTIONAL SKELETAL STEM CELLS FOR SKELETAL REGENERATION” (The Board of Trustees of the Leland Stanford Junior …, priority 2021, published 2024).

Assays:
[1] = test system: transverse femoral fractures of ‘24-mo’ mice; test: Hydrogels with recombinant factors placed on transverse femoral fractures of aged mice; healing assessed at day-10 and day-21 (callus index, μCT, mechanical strength test); assay type: in vivo, mouse; details: hydrogel at fracture, Bmp2 5 μg, aCsf1 2 (low) or 5 (high) μg, compared to ‘2-mo’ PBS controls
Text: (§1) Combinatorial targeting of the aged SSC differentiation defect and pro-resorptive signaling restores youthful bone regeneration. Our findings indicate that aged SSCs lose osteochondrogenic activity but also enhance bone resorption through the generation of an inflammatory, pro-osteoclastic niche. We hypothesized that bone regeneration could be restored in aged mice by targeting each of these pathways locally. To test this hypothesis, we created hydrogels containing the potent osteo-inductive agent Bmp2 (5 μg), a Csf1 antagonist (“aCsf1”; 2 “low” or 5 “high” μg), a combination of both factors, or PBS. We applied these hydrogels to transverse femoral fractures of ‘24-mo’ mice and assessed healing at post-fracture day-10 and -21 (FIG. 4a). ‘2-mo’ mice receiving PBS-containing hydrogels served as control. […] Within hematopoietic cell-enriched clusters (6 & 9) osteoclasts, macrophages, and neutrophils were dominant as expected for healing skeletal tissue (FIG. 4i-j & FIG. 13g). […]
X-ray radiography: Femora were harvested and cleaned of soft tissue. […] Radiograph images were analyzed using ImageJ 1.48v to determine the callus index. […]
Mechanical strength testing: Mechanical strength testing was conducted using a delaminator maintained by the R.H. Dauskardt laboratory (Stanford, CA). […] The maximum load (N) sustained prior to fracture was recorded. […]

[2] = test system: SSCs and BCSPs; test: Flow cytometry of SSC and BCSP frequency in treated day-10 fracture calluses; assay type: in vivo, mouse; details: ‘24-mo’ mice; callus flow cytometry; Bmp2 5 μg; aCsf1 low 2 μg; compared to ‘2-mo’ PBS controls
Text: as §1
Flow cytometry of skeletal progenitors: Skeletal stem cell lineage populations were isolated as previously described. […] The skeletal stem cell lineage gating strategy was determined using fluorescence-minus-one controls. […]

B1: Bmp2: Recombinant mouse growth factor BMP2 (FisherScientific, Cat #: 355-BM), potent osteo-inductive agent, loaded in PEG hydrogel (protein, UniProt P21274 281-394, looked up)
Bone morphogenetic protein 2: QAKHKQRKRLKSSCKRHPLYVDFSDVGWNDWIVAPPGYHAFYCHGECPFPLADHLNSTNHAIVQTLVNSVNSKIPKACCVPTELSAISMLYLDENEKVVLKNYQDMVVEGCGCR
modifications: loaded in PEG hydrogel
Callus index at post-fracture day-10 [1]: significantly smaller calluses | SSC and BCSP frequency at day-10 [2]: increased SSC and BCSP frequencies to youthful levels
